The values below come from US8741915B2, “Dihydropyrimidin-2(1H)-one compounds as S-nitrosoglutathione reductase inhibitors” (N30 Pharmaceuticals, Inc., priority 2009, dated 2014).

Chains of the proteins cited; added tags and fusions are not shown. Lines headed by an entry give the natural chain unless they say otherwise; changes in a name come on top.
UniProt P11766: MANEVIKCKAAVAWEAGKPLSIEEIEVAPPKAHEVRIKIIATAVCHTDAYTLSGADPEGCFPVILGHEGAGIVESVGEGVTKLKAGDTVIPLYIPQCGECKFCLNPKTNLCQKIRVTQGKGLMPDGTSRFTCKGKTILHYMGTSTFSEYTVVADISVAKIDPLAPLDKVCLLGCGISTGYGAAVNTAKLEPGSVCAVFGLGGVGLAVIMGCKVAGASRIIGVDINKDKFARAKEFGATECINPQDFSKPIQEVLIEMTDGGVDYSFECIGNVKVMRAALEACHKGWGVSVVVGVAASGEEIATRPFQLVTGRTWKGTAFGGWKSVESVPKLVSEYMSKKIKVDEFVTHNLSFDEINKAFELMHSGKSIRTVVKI

For one assay, the target named is GSNOR (Homo sapiens (Human), UniProt P11766). Briefly: GSNOR assay (inhibition of GSNOR activity in vitro, change in 340 nm absorbance with GSNO/NADH). To be noted: GSNOR IC50, Table 1, racemates and separated enantiomers.
As usually defined, the IC50 is the point on the concentration scale where inhibition reaches its midpoint. Higher therefore signals a need for much substance. With `CCOc1cc(C2NC(=O)NC(c3ccccc3)=C2c2ccccc2)cc([N+](=O)[O-])c1O` (racemic) [Example 1, 4-(3-ethoxy-4-hydroxy-5-nitrophenyl)-5,6-diphenyl-3,4-dihydropyrimidin-2(1H)-one], the 50% inhibitory concentration (IC50) was 29 nM.

Turning to `CCOc1cc(C2NC(=O)NC(c3ccccc3)=C2c2ccsc2)cc([N+](=O)[O-])c1O` (racemic) [Example 5, 4-(3-ethoxy-4-hydroxy-5-nitrophenyl)-6-phenyl-5-(thiophen-3-yl)-3,4-dihydropyrimidin-2(1H)-one], the IC50 is 19 nM.

The compound `CCOc1cc(C2NC(=O)NC(c3cccnc3)=C2c2ccsc2)cc([N+](=O)[O-])c1O` (racemic) [Example 116, 4-(3-ethoxy-4-hydroxy-5-nitrophenyl)-6-(pyridin-3-yl)-5-(thiophen-3-yl)-3,4-dihydropyrimidin-2(1H)-one] came in with a 50% inhibitory concentration (IC50) of 24 nM. `CCOc1cc(C2NC(=O)NC(c3ccn(C)n3)=C2c2ccsc2)cc([N+](=O)[O-])c1O` (racemic) [Example 119, 4-(3-ethoxy-4-hydroxy-5-nitrophenyl)-6-(1-methyl-1H-pyrazol-3-yl)-5-(thiophen-3-yl)-3,4-dihydropyrimidin-2(1H)-one] registered an IC50 of 40 nM. For the compound `CCOc1cc([C@@H]2NC(=O)NC(c3ccccc3)=C2c2ccccc2)cc([N+](=O)[O-])c1O` [Example 2, (S)-4-(3-ethoxy-4-hydroxy-5-nitrophenyl)-5,6-diphenyl-3,4-dihydropyrimidin-2(1H)-one], the IC50 is 11 nM. As to `CCOc1cc([C@H]2NC(=O)NC(c3ccccc3)=C2c2ccccc2)cc([N+](=O)[O-])c1O` [Example 3, (R)-4-(3-ethoxy-4-hydroxy-5-nitrophenyl)-5,6-diphenyl-3,4-dihydropyrimidin-2(1H)-one], the IC50 worked out at 19700 nM. The compound `CCOc1cc([C@H]2NC(=O)NC(c3ccccc3)=C2c2ccsc2)cc([N+](=O)[O-])c1O` [Example 7, (R)-4-(3-ethoxy-4-hydroxy-5-nitrophenyl)-6-phenyl-5-(thiophen-3-yl)-3,4-dihydropyrimidin-2(1H)-one] showed an IC50 of 1820 nM. The compound `CCOc1cc([C@@H]2NC(=O)NC(c3cccnc3)=C2c2ccsc2)cc([N+](=O)[O-])c1O` [Example 143, (S)-4-(3-ethoxy-4-hydroxy-5-nitrophenyl)-6-(pyridin-3-yl)-5-(thiophen-3-yl)-3,4-dihydropyrimidin-2(1H)-one] had an IC50 of 16 nM.

Take `CCOc1cc([C@H]2NC(=O)NC(c3cccnc3)=C2c2ccsc2)cc([N+](=O)[O-])c1O` [Example 144, (R)-4-(3-ethoxy-4-hydroxy-5-nitrophenyl)-6-(pyridin-3-yl)-5-(thiophen-3-yl)-3,4-dihydropyrimidin-2(1H)-one]: the IC50 worked out at 1900 nM. On to `CCOc1cc([C@H]2NC(=O)NC(c3ccn(C)n3)=C2c2ccsc2)cc([N+](=O)[O-])c1O` [Example 149, (R)-4-(3-ethoxy-4-hydroxy-5-nitrophenyl)-6-(1-methyl-1H-pyrazol-3-yl)-5-(thiophen-3-yl)-3,4-dihydropyrimidin-2(1H)-one], for which the concentration for half-maximal inhibition (IC50) stood at 31000 nM.

Staying with this assay, now noted: IC50, upper bound (about <).
Regarding `CCOc1cc(C2NC(=O)NC(c3ccccc3)=C2c2ccccc2)cc([N+](=O)[O-])c1O` (racemic) [Example 1, 4-(3-ethoxy-4-hydroxy-5-nitrophenyl)-5,6-diphenyl-3,4-dihydropyrimidin-2(1H)-one], the 50% inhibitory concentration (IC50) is less than 100 nM. Take `CCOc1cc([C@@H]2NC(=O)NC(c3ccccc3)=C2c2ccccc2)cc([N+](=O)[O-])c1O` [Example 2, (S)-4-(3-ethoxy-4-hydroxy-5-nitrophenyl)-5,6-diphenyl-3,4-dihydropyrimidin-2(1H)-one]: the IC50 is less than 100 nM.
